Where “and” joins values, the source holds several entries; their conditions need not be identical. Identical values can stand only once. Some compounds may have been tested in ways that are not shown here.
Assay: Solubility of HMTD in ionic liquids (content via 1H NMR)
Details: sum of the two HMTD proton signals after normalization of an IL methyl group to 3

In order of falling “rel. HMTD integral” value:
1. CCCC[n+]1ccc(C)cc1.F[B-](F)(F)F  0.70
2. CCn1cc[n+](C)c1.CS(=O)(=O)[O-]  0.48
3. CCCC[N+]1(C)CCCC1.O=S(=O)([O-])C(F)(F)F  0.17
4. CCCCCC[n+]1ccccc1.F[B-](F)(F)F  0.04

In the case of `CCCC[n+]1cccc(C)c1.F[B-](F)(F)F`, the “rel. HMTD integral” value is reported as 0.23 and 0.17.

— US8765481B2, “Method for detecting peroxide explosives” (dated 2014)
